{"sequences": {"note": "Amino acid sequences for entries named in this document (tags omitted). Residues count along the entry.", "UniProt Q00987, 1-119": "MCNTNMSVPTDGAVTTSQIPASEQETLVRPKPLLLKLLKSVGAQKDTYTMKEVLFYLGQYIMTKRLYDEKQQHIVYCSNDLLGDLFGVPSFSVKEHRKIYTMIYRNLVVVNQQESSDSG"}, "source": "patent US10761085B2", "about": "“Method for determining a protein-protein interaction” (MEDICAL & BIOLOGICAL LABORATORIES CO., LTD., priority 2014, dated 2020)", "type_in_all_cases": "cell-based", "key": {"[1]": {"biological_target": "T1, interaction between p53 and MDM2 (Homo sapiens, UniProt Q00987)", "T1 construct": "a region having the amino acids from positions 1 to 119 of the MDM2 protein; expressed in transfected cells; host or cells: HEK293", "assay": "Fluorescent focus detection of p53(70)-MDM2 interaction, FIG. 1 system, HEK293 cells (Example 4)", "conditions": "40 μM, 30 minutes, room temperature; PB1-p53(70)+PB1-mAG1-MDM2 and p53(70)-mAG1-PB1+PB1-MDM2"}, "[2]": {"biological_target": "T1, interaction between p53 and MDM2", "assay": "Fluorescent focus detection of p53(70)-MDM2 interaction, FIG. 2 system, HEK293 cells (Example 6)", "conditions": "40 μM, 30 minutes; p53(70)-mAG1-PB1 or p53(70)-PB1-mAG1 with PB1-mAG1-MDM2"}, "[3]": {"biological_target": "T1, interaction between p53 and MDM2", "assay": "Fluorescent focus detection of p53(70)-MDM2 interaction, FIG. 3 system, HeLaS3 cells constitutively expressing mAG1-PB1 (Example 13)", "conditions": "20 μM, observed 15 minutes thereafter; mAG1-PB1 + p53(70)-PB1 + PB1-MDM2", "protocol": "After that, the obtained mixture solution was added to the cultured cells and cultured for 20 hours."}, "[4]": {"biological_target": "T1, interaction between p53 and MDM2", "assay": "Fluorescent focus detection of p53(70)-MDM2 interaction, FIG. 8 system with different multimerizable proteins, HEK293 cells (Example 19)", "conditions": "40 μM; 30 minutes after the Nutlin-3 addition; all 9 combinations", "protocol": "Subsequently, a DNA solution prepared by mixing 200 ng of each of the plasmids was diluted with 10 μL of OptiMEM. Thereafter, 0.8 μL of Fugene HD was added thereto and then stirred. The resultant was further mixed with 90 μl of the culture solution. After that, the obtained mixture solution was added to the cultured cells and cultured for 20 hours."}}, "data": [{"smiles": "COc1ccc(C2=N[C@@H](c3ccc(Cl)cc3)[C@@H](c3ccc(Cl)cc3)N2C(=O)N2CCNC(=O)C2)c(OC(C)C)c1", "note": "[Nutlin-3]", "values": [{"measurement": "extinction of fluorescent foci (inhibition of p53-MDM2 interaction)", "setting": "[1]", "result": "fluorescent foci were extinguished"}, {"measurement": "extinction of fluorescent foci (inhibition of p53-MDM2 interaction)", "setting": "[2]", "result": "fluorescent foci were extinguished"}, {"measurement": "extinction of fluorescent foci (inhibition of p53-MDM2 interaction)", "setting": "[3]", "result": "the fluorescent foci were extinguished"}, {"measurement": "extinction of fluorescent foci (inhibition of p53-MDM2 interaction)", "setting": "[4]", "result": "the fluorescent foci were extinguished"}]}]}
